Reference: PubChem BioAssay AID1346983 (Tox21, 2019)
The list shows a part of the results, in another mix than the full data. Records with an inconclusive call do not appear. The source made the active and inactive calls. Calls come from the whole dose curve; as a rule, active = well fitted activation curve with a large enough effect in the repeat runs; inconclusive = weak or mixed curves; inactive = no such curve, though single readings can be large or run the other way.

Sequences of proteins named here, by UniProt entry; tags and fusion partners are left off. A change or cut given only in a name is not applied to a line headed by its entry.
UniProt Q9R1A7: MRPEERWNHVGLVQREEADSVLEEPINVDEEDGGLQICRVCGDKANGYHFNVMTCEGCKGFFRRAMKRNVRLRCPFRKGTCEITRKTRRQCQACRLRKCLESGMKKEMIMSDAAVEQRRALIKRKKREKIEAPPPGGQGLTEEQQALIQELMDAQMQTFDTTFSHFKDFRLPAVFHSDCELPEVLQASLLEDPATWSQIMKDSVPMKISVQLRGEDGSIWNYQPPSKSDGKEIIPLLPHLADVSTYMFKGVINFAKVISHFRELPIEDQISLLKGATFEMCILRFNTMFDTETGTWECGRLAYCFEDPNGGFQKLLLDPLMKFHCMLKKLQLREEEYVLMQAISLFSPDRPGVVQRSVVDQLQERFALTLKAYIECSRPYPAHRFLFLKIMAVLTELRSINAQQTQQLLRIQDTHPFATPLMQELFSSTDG

target: Nuclear receptor subfamily 1 group I member 2 (Rattus norvegicus) (UniProt Q9R1A7); assay: Rat pregnane X receptor (rPXR) activation by small molecules, qHTS assay; details: rPXR luciferase reporter cells, One-Glo luminescence, 24 h; stronger effect = higher value; note: nearly all actives have a fitted effect of over 20% in size
Excerpt: National Center for Advancing Translational Sciences [NCATS] NIH Chemical Genomics Center [NCGC] U.S. Environmental Protection Agency [EPA] National Institutes of Environmental Health Sciences [NIEHS] National Toxicology Program [NTP] Assay overview: The Pregnane X receptor (PXR), a ligand activated nuclear receptor plays a critical role in the regulation of genes involved in drug metabolism and transporters. PXR binds xenobiotics and when compounds interact with PXR produces enhanced expression of CYP3A genes. In humans PXR activation and CYP3A4 induction can be problematic due to their interactions with co-medicated drugs and decrease their efficacy or increase their own metabolism. However, there are known species-specific differences with regard to PXR activation that should be taken into account when animal PXR data are extrapolated to humans. A cell based rat PXR (rPXR) assay (developed by Puracyp, Inc., CA) was used to assess the activation of rPXR.
Assay Protocol Summary: rPXR cells were dispensed at 2,000 per well in 5uL of assay medium into white, solid-bottom 1536-well plates using a Multidrop Combi dispenser (Thermo Scientific). […] Then 5ul One-Glo assay reagent (Promega) was added to each plate by a Flying Reagent Dispenser (FRD, Aurora Discovery) and following 30 min incubation at room temperature, luciferase activity was quantified on a ViewLux plate reader (Perkin Elmer).
% is set by controls: 0 for no effect and ±100 for the full control effect.

**Q.** Which max activation does the source give for CN(C(=O)Cc1ccccc1)[C@H]1CC[C@@]2(CCCO2)C[C@@H]1N1CCCC1 here?
**A.** Its max activation is inactive: 1.06%.

**Q.** How did the max activation turn out when O=C(OC1CN2CCC1CC2)c1ccccc1 (configuration not stated) was run?
**A.** Its max activation is inactive: 1.05%.
